SMILES strings stand for the structures.

In the series the test system is patients experiencing ST-segment elevation myocardial infarction (STEMI). The series is described as follows: MULTISTRATEGY safety analysis: bleeding, transfusion, thrombocytopenia and thrombocytopenia-associated mortality. The conditions noted are these: At 30 d. The procedure: The inclusion criteria were (1) chest pain for longer than 30 minutes with an electrocardiographic ST-segment elevation of 1 mm or greater in two or more contiguous electrocardiogram leads, or with a new left bundle-branch block, and (2) admission either within 12 hours of symptom onset or between 12 and 24 hours after onset with evidence of continuing ischemia. The exclusion criteria included administration of fibrinolytics in the previous 30 days, major surgery within 15 days, and active bleeding or previous stroke in the last six months. Immediately after eligibility criteria were met and before the visualization of coronary arteries through angiography, the treating physician at each investigational site performed open-label assignments of study treatments via sealed envelopes.
This type of regimen is described in U.S. Pat. No. 6,770,660. Abciximab was administered in a 0.25 mg/kg bolus, followed by 0.125 μg/kg/min continuous infusion for 12 hours. The administration of both drugs began at first medical contact, before arterial sheath insertion. Heparin was given at 40 to 70 U/kg, targeting an activated clotting time of at least 200 seconds. Patients received aspirin (160-325 mg orally or 250 mg intravenously, followed by 80-125 mg/d orally indefinitely) and clopidogrel (300 mg orally and then 75 mg/d for at least three months).
The data for all patients with primary end-point events were reviewed by an independent adjudication committee whose members were blinded to treatment assignments. Events adjudication was performed separately by two members, and in case of disagreement, the opinion of the third member was obtained and the final decision taken by consensus. The committee was also responsible for the adjudication of all clinical events according to the Academic Research Consortium.^18
Discrete data were summarized as frequencies, and comparisons were made with the likelihood-ratio χ^2 test or Fisher exact test. Continuous data were expressed as mean (SD) or median and interquartile range according to their distribution; comparisons were made with a one-way analysis of variance or the Kruskal-Wallis test.

For `CCCCS(=O)(=O)N[C@@H](Cc1ccc(OCCCCC2CCNCC2)cc1)C(=O)O.Cl.O` [Tirofiban Plus Uncoated Stent], the Major bleeding entry was “(2.7) %”, the Minor bleedng result is “(5.9) %”, the “Moderate thrombocytoperia (<100000 cells/mm^3)” value is given as “(0.5) %” and the “Red blood cells transfusion ≧1 Units” value is recorded as “(4.8) %”. Besides, the “Red blood cells transfusion ≧2 Units” value was “(3.2) %” and the “Severe thrombocytoperia (<50000 cells/mm^3)” value is listed as “(1.1) %”. Moreover, under “number of patients”, the Major bleeding came to 5 No, the Minor bleedng is recorded as 11 No, the “Red blood cells transfusion ≧1 Units” value stood at 9 No and the “Red blood cells transfusion ≧2 Units” value is listed as 6 No.

For the origin of these results see patent US20120059036A1, “METHOD FOR REDUCING THROMBOCYTOPENIA AND THROMBOCYTOPENIA-ASSOCIATED MORTALITY” (priority 2008, published 2012).
